Measurements: patent publication US20200071326A1, “TAM KINASE INHIBITORS” (Syros Pharmaceuticals, Inc., priority 2017, published 2020)

Amino acid sequences for entries named in this document (tags omitted). Residues count along the entry.
UniProt Q12866, 21-999 limits assumed: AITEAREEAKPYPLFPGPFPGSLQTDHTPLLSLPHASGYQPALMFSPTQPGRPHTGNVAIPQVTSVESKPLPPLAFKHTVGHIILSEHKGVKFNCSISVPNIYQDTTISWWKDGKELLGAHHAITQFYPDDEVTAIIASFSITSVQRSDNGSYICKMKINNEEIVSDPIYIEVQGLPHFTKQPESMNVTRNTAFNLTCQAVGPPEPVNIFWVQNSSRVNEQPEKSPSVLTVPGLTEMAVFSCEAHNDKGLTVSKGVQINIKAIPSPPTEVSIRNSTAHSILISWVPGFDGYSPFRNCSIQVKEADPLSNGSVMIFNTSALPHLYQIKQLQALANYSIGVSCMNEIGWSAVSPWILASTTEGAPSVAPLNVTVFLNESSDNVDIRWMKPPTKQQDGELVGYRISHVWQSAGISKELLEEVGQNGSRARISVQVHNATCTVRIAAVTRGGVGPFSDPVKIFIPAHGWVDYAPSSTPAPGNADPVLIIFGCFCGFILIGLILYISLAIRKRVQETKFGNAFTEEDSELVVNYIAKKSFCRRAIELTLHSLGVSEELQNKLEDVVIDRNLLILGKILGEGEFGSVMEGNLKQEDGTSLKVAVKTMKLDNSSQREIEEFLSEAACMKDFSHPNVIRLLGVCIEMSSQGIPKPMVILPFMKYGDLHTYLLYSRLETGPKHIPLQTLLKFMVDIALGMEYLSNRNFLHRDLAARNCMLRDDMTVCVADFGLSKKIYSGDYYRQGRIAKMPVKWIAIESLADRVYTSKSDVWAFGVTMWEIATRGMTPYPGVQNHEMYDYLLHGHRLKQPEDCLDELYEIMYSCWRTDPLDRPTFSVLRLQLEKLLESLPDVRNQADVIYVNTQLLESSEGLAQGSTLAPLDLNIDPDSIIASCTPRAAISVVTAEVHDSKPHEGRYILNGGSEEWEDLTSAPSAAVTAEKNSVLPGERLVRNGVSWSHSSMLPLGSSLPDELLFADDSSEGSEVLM
UniProt P36888, 27-993 limits assumed: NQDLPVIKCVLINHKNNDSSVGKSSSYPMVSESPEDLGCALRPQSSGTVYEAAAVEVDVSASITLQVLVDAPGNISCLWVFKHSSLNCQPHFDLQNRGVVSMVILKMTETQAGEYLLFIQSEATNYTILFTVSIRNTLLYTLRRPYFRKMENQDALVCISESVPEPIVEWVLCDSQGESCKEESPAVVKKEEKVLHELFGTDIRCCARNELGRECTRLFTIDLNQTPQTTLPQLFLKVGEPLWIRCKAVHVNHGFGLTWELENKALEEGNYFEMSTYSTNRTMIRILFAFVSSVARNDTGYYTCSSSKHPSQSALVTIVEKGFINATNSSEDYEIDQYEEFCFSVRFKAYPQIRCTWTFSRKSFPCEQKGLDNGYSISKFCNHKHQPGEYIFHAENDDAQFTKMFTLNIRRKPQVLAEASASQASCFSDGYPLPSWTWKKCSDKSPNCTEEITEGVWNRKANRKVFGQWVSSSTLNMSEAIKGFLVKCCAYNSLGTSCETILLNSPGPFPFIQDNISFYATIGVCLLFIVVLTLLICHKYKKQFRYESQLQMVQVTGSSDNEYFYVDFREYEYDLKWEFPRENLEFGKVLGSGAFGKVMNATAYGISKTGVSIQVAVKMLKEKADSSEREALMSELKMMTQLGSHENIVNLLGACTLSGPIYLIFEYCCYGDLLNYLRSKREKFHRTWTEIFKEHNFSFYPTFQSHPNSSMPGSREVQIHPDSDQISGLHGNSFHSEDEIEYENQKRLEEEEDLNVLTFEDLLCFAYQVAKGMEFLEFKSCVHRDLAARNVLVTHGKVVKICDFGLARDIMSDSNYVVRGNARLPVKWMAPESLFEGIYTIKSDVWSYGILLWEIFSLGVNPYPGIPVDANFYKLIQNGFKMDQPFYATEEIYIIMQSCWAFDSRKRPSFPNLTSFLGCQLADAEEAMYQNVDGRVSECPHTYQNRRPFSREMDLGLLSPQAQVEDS
UniProt P30530, 26-894 limits assumed: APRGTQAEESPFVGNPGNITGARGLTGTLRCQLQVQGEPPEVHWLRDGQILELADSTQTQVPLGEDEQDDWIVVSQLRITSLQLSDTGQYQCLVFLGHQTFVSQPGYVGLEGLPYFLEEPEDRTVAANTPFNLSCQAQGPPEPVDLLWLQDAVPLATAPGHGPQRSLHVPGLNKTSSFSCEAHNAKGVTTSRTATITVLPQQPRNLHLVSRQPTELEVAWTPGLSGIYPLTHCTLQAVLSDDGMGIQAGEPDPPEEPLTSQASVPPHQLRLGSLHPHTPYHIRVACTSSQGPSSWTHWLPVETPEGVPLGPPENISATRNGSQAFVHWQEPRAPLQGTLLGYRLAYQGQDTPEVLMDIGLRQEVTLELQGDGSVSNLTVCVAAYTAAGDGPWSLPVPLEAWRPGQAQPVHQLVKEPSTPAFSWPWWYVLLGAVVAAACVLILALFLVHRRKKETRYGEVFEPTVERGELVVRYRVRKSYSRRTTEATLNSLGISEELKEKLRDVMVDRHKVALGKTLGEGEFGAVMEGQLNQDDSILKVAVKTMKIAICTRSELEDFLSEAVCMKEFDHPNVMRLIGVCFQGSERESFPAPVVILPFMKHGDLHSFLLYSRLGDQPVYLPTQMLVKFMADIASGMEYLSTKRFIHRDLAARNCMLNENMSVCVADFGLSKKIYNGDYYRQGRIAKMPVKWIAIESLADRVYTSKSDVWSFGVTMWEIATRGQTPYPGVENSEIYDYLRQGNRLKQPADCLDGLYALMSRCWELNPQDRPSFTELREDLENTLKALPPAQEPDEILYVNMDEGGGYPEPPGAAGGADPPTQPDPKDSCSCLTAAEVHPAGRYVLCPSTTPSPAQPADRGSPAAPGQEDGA
UniProt Q06418, 41-890 limits assumed: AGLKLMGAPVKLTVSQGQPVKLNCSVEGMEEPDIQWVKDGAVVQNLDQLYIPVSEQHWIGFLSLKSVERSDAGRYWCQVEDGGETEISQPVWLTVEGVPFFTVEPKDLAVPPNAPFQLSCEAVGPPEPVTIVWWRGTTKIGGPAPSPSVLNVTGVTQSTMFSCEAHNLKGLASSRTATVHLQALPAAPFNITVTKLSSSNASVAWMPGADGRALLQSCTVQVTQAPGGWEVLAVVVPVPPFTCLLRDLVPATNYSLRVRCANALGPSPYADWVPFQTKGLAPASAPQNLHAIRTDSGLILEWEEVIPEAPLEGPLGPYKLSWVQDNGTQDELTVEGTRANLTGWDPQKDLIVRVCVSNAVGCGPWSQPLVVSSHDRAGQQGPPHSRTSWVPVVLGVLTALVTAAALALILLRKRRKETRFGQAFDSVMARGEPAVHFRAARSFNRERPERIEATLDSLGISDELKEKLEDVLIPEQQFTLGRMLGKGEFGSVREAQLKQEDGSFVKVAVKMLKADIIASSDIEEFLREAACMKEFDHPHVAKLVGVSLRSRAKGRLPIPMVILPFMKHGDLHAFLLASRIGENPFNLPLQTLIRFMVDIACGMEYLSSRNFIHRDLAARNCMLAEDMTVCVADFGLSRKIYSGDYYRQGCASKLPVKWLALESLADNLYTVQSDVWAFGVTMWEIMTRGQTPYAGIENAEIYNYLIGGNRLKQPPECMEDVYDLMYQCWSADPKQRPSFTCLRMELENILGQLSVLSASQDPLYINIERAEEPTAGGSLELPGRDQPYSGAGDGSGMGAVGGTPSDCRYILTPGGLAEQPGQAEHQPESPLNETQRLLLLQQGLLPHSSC

Key:
[1] = target: MERTK (Homo sapiens, UniProt Q12866); experiment: IMAP fluorescence polarization kinase assay, MERTK; settings: read-out: MERTK inhibitory constant (Ki), ATP 2.69 μM, enzyme 1.5 nM, 240 minutes
Procedure: (§1) Activities of compounds against each of TYRO3, AXL, and MERTK as well as against FLT3, were determined using an immobilized metal ion affinity-based fluorescence polarization (“IMAP”) assay. A fluorescently-labeled substrate peptide was phosphorylated in the kinase reaction, after which a binding solution containing large trivalent metal-based nanoparticles was added and the phosphorylated substrate binds to these beads. This reduces the rotational speed of the substrate which is then detected using fluorescence polarization as a read-out.
(§2) The substrates used for each enzyme are as follows: AXL: 5F1-KKKKEEIYFFFG-NH2(SEQ ID NO:1); FLT3: 5F1-KKKKEEIYFFF-NH2 (SEQ ID NO:2); MERTK: 5F1-EFPIYDFLPAKKK-NH2 (SEQ ID NO:3); and TYRO3: 5F1-EFPIYDFLPAKKK-NH2 (SEQ ID NO:4).
(§3) This assay was performed in a 384-well, polystyrene microplate in a final volume of 8 μl. […] IMAP binding solution was then dispensed, the plate incubated for 60 minutes at room temperature and the fluorescence polarization measured. Data were analyzed using XLfit.

[2] = target: FLT3 (Homo sapiens, UniProt P36888); experiment: IMAP fluorescence polarization kinase assay, FLT3; settings: read-out: FLT3 inhibitory constant (Ki), ATP 2.74 μM, enzyme 2.5 nM, 240 minutes
Procedure: as §1, §2, §3

[3] = target: AXL (Homo sapiens, UniProt P30530); experiment: IMAP fluorescence polarization kinase assay, AXL; settings: read-out: AXL inhibitory constant (Ki), ATP 24.7 μM, enzyme 2.5 nM, 240 minutes
Procedure: as §1, §2, §3

[4] = target: TYRO3 (Homo sapiens, UniProt Q06418); experiment: IMAP fluorescence polarization kinase assay, TYRO3; settings: read-out: TYRO3 inhibitory constant (Ki), ATP 54.0 μM, enzyme 2.5 nM, 60 minutes
Procedure: as §1, §2, §3

CC[C@@H](C)c1cc2c(N[C@H]3CC[C@H](N)CC3)c(C(=O)Nc3ccc(F)cc3)cnc2[nH]1
Ki [1]: < 100 nM | Ki [2]: 100 to 1000 nM | Ki [3]: 1000 to 10000 nM | Ki [4]: < 100 nM
